The target of this test is cardiac sodium channel (Rattus norvegicus, UniProt P15389). In words: Whole cell voltage clamp, sodium current. The following applies: read-out: EC20 Sodium current reduction; concentration required to produce a 20% change; single isolated adult rat cardiac cells; in the presence of naloxone. The protocol: A compound is also tested directly for effects on sodium and potassium currents in isolated rat myocytes. Isolated rat myocytes are obtained in the conventional manner used to obtain isolated myocytes from isolated hearts. They are used in conventional voltage clamp studies. In order to obtain adequate voltage clamps for estimation of a compound's effects on sodium and potassium currents, the whole-cell patch clamp technique is used. In this technique, a microelectrode is attached to a cell in such a manner that the cell's internal contents are in free communication with the electrode's content. Using the appropriate buffers and conventional voltage step protocols, both sodium and potassium currents can be identified. The effects of a compound are tested on these currents.
In the following examples, antiarrhythmic efficacy was assessed against coronary occlusion induced arrhythmias in the rat using standard methods. ECG and electrophysiological stimulating tests in rats and primates involved standard ECG leads and ventricular stimulation (implanted electrodes in the rats and inserted right ventricular electrodes in primates). Intracellular recordings were made from the epicardium of rat hearts in vivo. Whole cell voltage clamp studies were performed in single, isolated, adult rat heart cells. […]

Amino acid sequences for entries named in this document (tags omitted).
UniProt P15389, whole entry: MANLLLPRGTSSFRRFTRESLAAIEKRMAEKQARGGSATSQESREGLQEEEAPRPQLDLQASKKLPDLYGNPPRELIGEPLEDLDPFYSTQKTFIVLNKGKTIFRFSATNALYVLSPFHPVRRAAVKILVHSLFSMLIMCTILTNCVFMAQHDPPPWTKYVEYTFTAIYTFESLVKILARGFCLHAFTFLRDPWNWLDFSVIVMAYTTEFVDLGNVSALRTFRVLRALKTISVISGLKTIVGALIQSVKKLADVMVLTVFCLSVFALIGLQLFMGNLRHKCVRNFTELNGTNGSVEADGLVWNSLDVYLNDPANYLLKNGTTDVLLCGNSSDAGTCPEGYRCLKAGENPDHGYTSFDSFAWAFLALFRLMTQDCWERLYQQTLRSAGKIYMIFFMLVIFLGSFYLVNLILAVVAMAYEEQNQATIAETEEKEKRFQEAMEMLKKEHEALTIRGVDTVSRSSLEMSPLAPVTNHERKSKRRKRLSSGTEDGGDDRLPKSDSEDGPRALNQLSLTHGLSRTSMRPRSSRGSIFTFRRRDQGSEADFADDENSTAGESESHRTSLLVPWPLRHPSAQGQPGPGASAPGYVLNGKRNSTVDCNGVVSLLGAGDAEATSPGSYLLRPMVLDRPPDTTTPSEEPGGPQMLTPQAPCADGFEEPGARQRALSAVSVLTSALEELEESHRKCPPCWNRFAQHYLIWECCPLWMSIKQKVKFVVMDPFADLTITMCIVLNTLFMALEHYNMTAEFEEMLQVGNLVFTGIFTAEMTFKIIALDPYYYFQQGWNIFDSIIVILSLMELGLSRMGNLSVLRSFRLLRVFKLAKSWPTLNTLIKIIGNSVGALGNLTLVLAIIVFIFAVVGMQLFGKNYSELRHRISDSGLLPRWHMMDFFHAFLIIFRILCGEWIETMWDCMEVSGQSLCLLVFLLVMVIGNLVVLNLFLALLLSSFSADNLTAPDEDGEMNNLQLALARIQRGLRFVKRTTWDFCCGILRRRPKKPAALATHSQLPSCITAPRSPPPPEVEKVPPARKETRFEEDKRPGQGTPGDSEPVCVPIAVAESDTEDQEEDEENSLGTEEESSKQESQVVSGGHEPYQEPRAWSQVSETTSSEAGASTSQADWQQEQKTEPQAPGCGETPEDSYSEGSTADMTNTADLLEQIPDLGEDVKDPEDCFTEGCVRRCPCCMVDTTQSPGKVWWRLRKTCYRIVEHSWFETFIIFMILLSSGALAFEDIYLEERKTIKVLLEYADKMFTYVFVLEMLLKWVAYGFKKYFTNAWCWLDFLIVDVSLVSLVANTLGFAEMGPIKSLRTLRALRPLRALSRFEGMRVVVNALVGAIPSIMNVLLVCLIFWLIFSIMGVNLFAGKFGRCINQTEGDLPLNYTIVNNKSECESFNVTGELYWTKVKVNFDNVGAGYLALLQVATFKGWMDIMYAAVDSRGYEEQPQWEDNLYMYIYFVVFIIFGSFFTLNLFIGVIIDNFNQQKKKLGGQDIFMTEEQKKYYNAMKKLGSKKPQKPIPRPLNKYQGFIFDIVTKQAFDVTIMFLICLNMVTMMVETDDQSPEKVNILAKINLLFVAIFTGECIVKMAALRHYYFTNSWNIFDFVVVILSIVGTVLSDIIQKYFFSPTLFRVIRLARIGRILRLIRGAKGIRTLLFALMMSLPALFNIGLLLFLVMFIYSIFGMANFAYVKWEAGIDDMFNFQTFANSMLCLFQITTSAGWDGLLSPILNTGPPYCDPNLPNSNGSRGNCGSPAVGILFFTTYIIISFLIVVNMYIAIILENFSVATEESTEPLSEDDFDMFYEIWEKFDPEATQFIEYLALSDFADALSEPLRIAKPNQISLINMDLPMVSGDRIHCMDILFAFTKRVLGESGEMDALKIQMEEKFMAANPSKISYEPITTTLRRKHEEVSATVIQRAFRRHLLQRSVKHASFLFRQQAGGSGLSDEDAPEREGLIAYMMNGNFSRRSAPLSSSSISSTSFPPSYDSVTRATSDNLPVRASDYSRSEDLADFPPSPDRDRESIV

Drawing on patent EP0632806B1 (priority 1992, dated 1993), this text covers IC20 for one compound.

Molecules are shown by their SMILES. Some compounds may have been tested in ways that are not shown here.

For the compound `CN(C(=O)COc1ccc(Cl)c(Cl)c1)[C@@H]1CCCC[C@H]1N1CCCC1` (racemic), the IC20 amounted to 4 µM.
